Assay results from ChEMBL document CHEMBL4266052, “Evaluation of Inhibitory Activities of UK-2A, an Antimycin-Type Antibiotic, and Its Synthetic Analogues against the Production of Anti-inflammatory Cytokine IL-4” (J Nat Prod, 2018).

system: RBL-2H3; assay: Anti-inflammatory activity in DNP-IgE-stimulated rat RBL2H3 cells assessed as reduction of IL4 secretion pretreated for 10 mins followed by DNP-HSA stimulation measured after 1 hr by ELISA; type: functional, cell-based

| SMILES | Activity |
| --- | --- |
| CCCC[C@H]1C(=O)OC[C@H](NC(=O)c2nccc(OC)c2O)C(=O)O[C@@H](C)[C@@H]1OC(=O)C(C)C | Dose-dependent effect |
| CC(C)C(=O)O[C@H]1[C@H](C)OC(=O)[C@@H](NC(=O)c2cccc(NC=O)c2O)COC(=O)[C@@H]1Cc1ccccc1 | Dose-dependent effect |
| COc1ccnc(C(=O)N[C@H]2COC(=O)[C@H](Cc3ccccc3)[C@@H](OC(=O)CC(C)C)[C@H](C)OC2=O)c1O | Dose-dependent effect |
